# Biological target: HSA (Homo sapiens, UniProt P02768)
# Experiment: Circular dichroism analysis of HSA secondary structure
# Assay type: physicochemical
# Details: CD 180-260nm, HSA 0.8mg/mL
substance,measurement,value
"HSA: human serum albumin, bought from Baxter AG; blank protein reference in CD analysis",HSA secondary structure: Antiparallel,19.40%
same,HSA secondary structure: Beta-Turn,17.00%
same,HSA secondary structure: Helix,23.20%
same,HSA secondary structure: Rndm. Coil,38.90%
same,HSA secondary structure: Total Sum,104.50%
same,HSA secondary structure: parallel,5.90%

# Reference: paper PMC8081182, “A novel preparative method for nanoparticle albumin-bound paclitaxel with high drug loading and its evaluation both in vitro and in vivo” (PLoS ONE, 2021)
